Laboratory results: patent US12576081B2, “Methods and compositions for improving exercise performance, single ventricular performance, cardiac output and myocardial performance index (MPI) in single ventricular heart disease, using udenafil compositions” (MEZZION PHARMA CO., LTD., priority 2019, dated 2026)
“Also recorded” adds a separate entry of the source.

Tests used:
Format in all cases: in vivo, human
[1] = tested on: adolescents with SVHD who had undergone Fontan palliation; assay: FUEL trial, serum brain-type natriuretic peptide; conditions: p=0.18
[2] = tested on: adolescents with SVHD who had undergone Fontan palliation; assay: FUEL trial, echocardiographic myocardial performance index (blood pool Doppler); conditions: ITT population, baseline before drug
Text: Generally speaking, MPI (also referred to as the Doppler-derived index or Tei Index) is a measure of ventricular systolic and diastolic function as determined by a focused echocardiogram. It combines systolic and diastolic time intervals to assess heart function. More specifically, MPI can be used to assess ventricular performance represented by a numeric value using cardiac time intervals. This numeric value equals the sum of isovolumetric contraction time (ICT) and isovolumetric relaxation time (IRT) divided by ejection time (ET) and can be determined for either the left or right ventricle. Pellett, A. A., et al.: The Tei Index: Methodology and Disease. State Values. Echocardiography. A Jrnl. of CV Ultrasound & Allied Tech. 21(7):669-672 (2004); and Ulugay, A., Tatli E.: Myocardial performance index. […] In the FUEL Trial, the MPI measured the performance of the single functioning ventricle. Thus, the MPI results from the FUEL Trial were determined by velocities obtained from blood pool Doppler assessment of the inflow and outflow tract of the functioning single ventricle. In other words, the FUEL Trial MPI was determined by measuring the cardiac time intervals using pulsed-wave Doppler velocity spectra of the ventricular inflow and outflow of the single functioning ventricle. […]

[3] = tested on: adolescents with SVHD who had undergone Fontan palliation; assay: FUEL trial, peripheral arterial tonometry (EndoPAT) reactive hyperemia index
Text: (§1) The primary aim was to determine the effect of udenafil on exercise capacity in adolescents with Fontan physiology over a six-month period. The primary outcome was the change in oxygen consumption at peak exercise (max or peak VO2) from baseline to the 26-week visit. Secondary exercise outcomes included change in additional measures at maximal exertion, as well as change in measures of submaximal exercise at the ventilatory anaerobic threshold (VAT). […] Safety was monitored through adverse event reports, which were collected according to a pre-specified protocol of study coordinator outreach, and through ad hoc patient and family communication with members of the study team at each site.
(§2) Baseline clinical testing completed before drug initiation included a blood draw to measure brain-type natriuretic peptide (BNP) level, a cardiopulmonary exercise test (CPET) using a standardized cycle ergometer ramp protocol, a standardized echocardiogram, and an assessment of peripheral vascular function using peripheral arterial tonometry (PAT) measured by finger cuff (EndoPAT; Itamar Medical, Israel). […]

[4] = tested on: adolescents with SVHD who had undergone Fontan palliation; assay: FUEL trial, cardiopulmonary exercise test (cycle ergometer ramp protocol), peak exercise and ventilatory anaerobic threshold; conditions: 87.5 mg twice daily, baseline to week 26; stated as size of decrease; p=0.011 vs placebo
Protocol: The FUEL Trial was conducted at 30 centers around the world. The FUEL Trial was a Phase 3, randomized, double-blind, placebo-controlled trial of udenafil in adolescents with SVHD who had undergone Fontan palliation. (Funded by Mezzion Pharma Co. Ltd., and conducted by the National Heart, Lung, and Blood Institute-funded Pediatric Heart Network; ClinicalTrials.gov number NCT02741115).
as §1, with “visit.” for “visit. Secondary exercise outcomes included change in additional measures at maximal exertion, as well as change in measures of submaximal exercise at the ventilatory anaerobic threshold (VAT).”
as §2

CCCOc1ccc(S(=O)(=O)NCCC2CCCN2C)cc1-c1nc2c(CCC)nn(C)c2c(=O)[nH]1 (centres unmarked) [Udenafil, udenafil]
Change in log serum BNP level vs placebo (in words) [1]: not different between groups | Myocardial Performance Index (MPI), baseline, mean (SD) [2]: 150: 0.45 (0.173) | PAT-derived reactive hyperemia index, benefit over placebo (in words) ([3]; 26 weeks): relative improvement in the PAT-derived reactive hyperemia index was not seen; also recorded: did not reveal a benefit | Log-transformed reactive hyperemia index, difference LS mean (SE) ([3]; udenafil vs placebo, change Week 26 − baseline, p 0.591): 0.02 (0.030) | VE/VCO2 at VAT, decrease (improved ventilatory efficiency) [4]: 0.8
